{"source": "paper PMC8224742", "about": "“Evaluation of 1β-Hydroxylation of Deoxycholic Acid as a Non-Invasive Urinary Biomarker of CYP3A Activity in the Assessment of Inhibition-Based Drug–Drug Interaction in Healthy Volunteers” (Journal of Personalized Medicine, 2021)", "origin": "cited, not measured here", "system": "CYP3A", "details": "following 400 mg of FKZ ingestion; cited from earlier work", "data": [{"smiles": "OC(Cn1cncn1)(Cn1cncn1)c1ccc(F)cc1F", "note": "[FKZ, fluconazole]", "values": [{"measurement": "fold increase of MDZ AUC", "result": "2–3 fold"}]}]}
